Binding of CDR-mutated scFvs to a peptide of the spike HR2 region

Values reported by Engelhart et al. 2022, doi:10.1038/s41597-022-01779-4 (FLAb copy).

All variants were tested on one target, the spike HR2 peptide PDVDLGDISGINAS (SARS-CoV-2).

Parent: Ab-91, a human scFv built as VL, three GGGGS repeats, VH. Only the CDRs of the heavy chain vary.
VL: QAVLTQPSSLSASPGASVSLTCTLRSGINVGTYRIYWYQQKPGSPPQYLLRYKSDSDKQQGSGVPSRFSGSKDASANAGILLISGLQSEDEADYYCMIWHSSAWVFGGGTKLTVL
VH: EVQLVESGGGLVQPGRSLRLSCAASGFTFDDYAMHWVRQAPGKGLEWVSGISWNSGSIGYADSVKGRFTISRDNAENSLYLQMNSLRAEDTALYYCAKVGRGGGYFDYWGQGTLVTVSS

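The starting antibody came from a phage panning campaign against this peptide. Variants in AAYL51 differ from the parent at up to three CDR positions; double and triple changes were sampled at random. AlphaSeq pools MATa yeast showing the antibodies with MATalpha yeast showing the peptide. Binding brings cells together so that they mate, and sequencing counts the barcode pairs among the diploids. Scores were corrected for input abundance and mapped to Kd with protein pairs of known affinity run in the same pool. Each pool was mated in three replicate cultures.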

Each variant is given by its three heavy chain CDRs, as the data file delimits them; those of the parent are GFTFDDYAMH, GISWNSGSIGYADSVK, VGRGGGYFDY. Values are log10 of the apparent Kd in nM; lower means stronger binding. Averages over replicates are reported, and they cover detected replicates only. An entry "nd" has no value in the source: the pair was not observed among the diploids in that replicate. This suggests poor binding but is not conclusive. Parent in this assay: reference entry 1.86, copy in this library 0.88.

CDR-H1,CDR-H2,CDR-H3,"log10 Kd, replicates","mean, log10 nM",control signals
GFTFDQYAMH,GISWNSGSIGYAESVK,VGRGGGYFDE,0.73 0.73 0.12,0.52,2 of 9 (4.58)
GFTFDDYSMH,GISWNSGSIPYADSVK,VGRGYGYFDY,nd nd nd,nd,3 of 9 (4.69)
GFTFDDYAMN,GKSWNYGSIGYADSVK,VGRGGGYFDY,5.15 4.72 nd,4.93,4 of 9 (4.21)
GYTDDDYGMH,GISWNSGSIGYADSVK,VGRGGGYFDY,4.99 4.81 5.16,4.98,7 of 9 (5.26)
GFTFDDYAMH,GISWNSGQIGYADSVK,VGRGGGQFDY,1.38 1.29 1.05,1.24,4 of 9 (4.81)
FFTFDDYAME,GISWGSGSIGYADSVK,VGRGGGYFDY,nd nd nd,nd,0 of 9
GFTFDDYAPH,GISWNYASIGYADSVK,VGRGGGYFDY,nd 6.57 nd,6.57,4 of 9 (4.49)
GFTFDDYAME,GISWNSGSIGYADSVN,VGRGGGYFDY,nd nd nd,nd,0 of 9
GFTFWDYAMH,GISWNSGSIGYADSVK,VGRGIGYFDY,1.69 1.65 1.62,1.65,1 of 9 (4.22)
RFTFDDYAFH,GISWNMGSIGYADSVK,VGRGGGYFDY,nd nd nd,nd,1 of 9 (3.67)
GFTFDDYAMH,NKSLNSGSIGYADSVK,VGRGGGYFDY,nd nd nd,nd,3 of 9 (3.54)
GFTFDDYAMH,GISWNSGSIGYADSVS,VGRGSGCFDY,5.50 nd 4.33,4.91,5 of 9 (4.37)
KFTFDDYASH,GISWNSGSIGYADSVK,VGFGGGYFDY,nd nd nd,nd,0 of 9
GFTFDDYAKH,GISWNSGHIGYADSVK,VYRGGGYFDY,nd nd nd,nd,0 of 9
GFTFFDYAMH,GISWNSGSIHYADSVK,VGRGGGYFVY,4.96 5.67 nd,5.32,3 of 9 (4.17)
EQTFDDYAMH,GISWNEGSIGYADSVK,VGRGGGYFDY,6.01 nd nd,6.01,4 of 9 (4.50)
GFTFYDYAMS,GISWNSGSIGYADSVK,FGRGGGYFDY,nd 5.62 nd,5.62,1 of 9 (3.97)
GFTFDDYAMH,GIRWNSGSIGYADSVK,VGVGGGYFEY,nd 3.61 3.91,3.76,4 of 9 (4.88)
GFTFDDYAMH,GISWNSGSIRRADSVK,VGRGGGYFDY,3.78 nd nd,3.78,1 of 9 (5.14)
GHTFDDYAMH,GPSWNSGSIGYADSVK,VGRGGGYFDD,nd nd nd,nd,3 of 9 (3.94)
NFTFDDYAMH,GISWPSGSIGHADSVK,VGRGGGYFDY,nd nd nd,nd,0 of 9
GFTFDDMAMH,GISWNSGSIGYAMSVK,VGRGGPYFDY,4.31 4.83 nd,4.57,3 of 9 (4.86)
GFTFDDYAMH,DISWNSGSIGYTDSVK,VGRGGGYFDY,nd nd 4.64,4.64,2 of 9 (3.78)
GFTFDDYAMH,GISWNSGSIGWADSTK,VSRGGGYFDY,nd 4.86 4.92,4.89,4 of 9 (4.89)
GFTFDDNAMH,GISWNSGSIGYADSVK,VGREGGYWDY,2.99 3.19 3.36,3.18,8 of 9 (5.72)
GFTFDDYAMH,GISWNRGSIGYADEVK,VQRGGGYFDY,nd nd nd,nd,0 of 9
KFQFDDYAMH,GISWNSGSIGYADSVK,VGRYGGYFDY,nd nd nd,nd,3 of 9 (3.88)
GRGFDDPAMH,GISWNSGSIGYADSVK,VGRGGGYFDY,4.07 nd nd,4.07,2 of 9 (5.04)
GFTFWDYAMH,GISWNSGRIGYYDSVK,VGRGGGYFDY,5.75 nd nd,5.75,2 of 9 (4.10)
GFTFDDYAMH,GISWIEGSIGYADSVK,VGRGYGYFDY,nd nd nd,nd,0 of 9
GFTNDDYAMH,GISNNQGSIGYADSVK,VGRGGGYFDY,nd nd nd,nd,0 of 9
GFTFDDPAMH,GISWNSGCIGYADEVK,VGRGGGYFDY,nd nd nd,nd,1 of 9 (4.10)
GFTFDDYAMH,GCSWNSGSIGYADSVK,VGYGLGYFDY,nd nd nd,nd,2 of 9 (3.66)
GFTFDDYAMH,GISWNSGSIGYARSVK,LGRGGGYFFY,3.67 6.24 nd,4.95,4 of 9 (4.76)
GFTFDDYAMH,CISWNSGSIGWADSVY,VGRGGGYFDY,4.84 nd nd,4.84,1 of 9 (4.42)
GFTFDDYAMH,GISWNMGSIGYADSVK,VGHGGGYFFY,nd nd nd,nd,0 of 9
GFTFDDYAMH,GISKNSGSIGYADSVK,VGRGGGYRDF,nd nd nd,nd,0 of 9
GFTIDDYAMH,GISWNSGSIGYMDSVK,VFRGGGYFDY,nd nd nd,nd,1 of 9 (4.45)
AFTFDDYAMH,GCSWNSGSIGYADSVK,VWRGGGYFDY,nd nd nd,nd,0 of 9
GFTFDDYAFH,GISWYSGSIGYADSVK,VGRGGGYFLY,nd 4.20 nd,4.20,1 of 9 (4.33)
GFTFDDYAMH,GISRNSGSIGYADSFK,VGRGWGYFDY,2.93 3.04 2.54,2.84,4 of 9 (3.83)
GFTFDDYWFH,GISWNSGVIGYADSVK,VGRGGGYFDY,nd nd nd,nd,0 of 9
LFTFDDYAMP,GISWNSGSIGYADDVK,VGRGGGYFDY,nd nd nd,nd,0 of 9
GFTFDDYAMH,GIHWNSGSIGYADSVK,VGRGWGYFDY,nd nd nd,nd,2 of 9 (3.44)
GFTFDDYAVH,GISWNSGSIGRADSVK,VHRGGGYFDY,nd nd 5.02,5.02,2 of 9 (4.88)
GFTEDFYAMH,GISWNSGSIIYADSVK,VGRGGGYFDY,3.38 nd nd,3.38,3 of 9 (4.39)
GFTEDDYAMH,GISQNSGAIGYADSVK,VGRGGGYFDY,nd nd 1.81,1.81,1 of 9 (2.88)
GMTFDDYAMH,GISRNSGSIGYADSVK,VGRMGGYFDY,5.10 5.53 4.85,5.16,7 of 9 (4.59)
GFTFDDYAMH,GISWNSGSIGYADSVF,VGRGDGYFDN,1.35 1.32 0.80,1.16,6 of 9 (4.68)
LFTFDDYIMH,GISWNSGTIGYADSVK,VGRGGGYFDY,5.07 nd nd,5.07,1 of 9 (4.28)

Excerpt, the first 3 entries:

CDR-H1,CDR-H2,CDR-H3,"log10 Kd, replicates","mean, log10 nM",control signals
GFTFDQYAMH,GISWNSGSIGYAESVK,VGRGGGYFDE,0.73 0.73 0.12,0.52,2 of 9 (4.58)
GFTFDDYSMH,GISWNSGSIPYADSVK,VGRGYGYFDY,nd nd nd,nd,3 of 9 (4.69)
GFTFDDYAMN,GKSWNYGSIGYADSVK,VGRGGGYFDY,5.15 4.72 nd,4.93,4 of 9 (4.21)

Nonspecific signal, from three strains lacking the peptide, appeared in 21% of pairings of library AAYL51, centred on 4.54 (5% of these signals below 3.26); values are not corrected for it. Also given: how often the same scFv was detected with the empty control strains, with their mean in brackets.